This is a selection; strong and weak results do not stand in their true shares. Calls of active or inactive are those of the source. No stated cut-off is given here; in the data, active means activation above about 18%; inactive means the rest.
target: Mu-type opioid receptor (Homo sapiens) + Delta-type opioid receptor (Homo sapiens) (UniProt P35372+P41143); assay: inducers of mu-delta opioid receptor heterodimers – cell-based, luminescence, primary screen (AID 504326); conditions: cells, OPRM1-OPRD1 heterodimerization, at 9.3 µM, stronger effect = higher value;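 further: 0% = vehicle-treated cells and 100% = reference agonist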

By UniProt entry, the sequences of proteins in these tests, tags left out.
UniProt P35372, whole entry, looked up: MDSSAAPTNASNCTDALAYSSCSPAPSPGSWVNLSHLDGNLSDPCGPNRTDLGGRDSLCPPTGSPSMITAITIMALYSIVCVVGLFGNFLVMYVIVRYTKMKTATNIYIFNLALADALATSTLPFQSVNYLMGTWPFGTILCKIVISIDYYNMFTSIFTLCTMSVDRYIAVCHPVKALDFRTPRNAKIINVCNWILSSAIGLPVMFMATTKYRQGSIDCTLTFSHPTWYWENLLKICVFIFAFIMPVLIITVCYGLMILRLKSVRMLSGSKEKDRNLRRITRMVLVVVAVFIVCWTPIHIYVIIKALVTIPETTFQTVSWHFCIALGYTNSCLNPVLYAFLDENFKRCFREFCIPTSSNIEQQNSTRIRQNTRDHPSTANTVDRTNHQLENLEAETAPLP
UniProt P41143, whole entry, looked up: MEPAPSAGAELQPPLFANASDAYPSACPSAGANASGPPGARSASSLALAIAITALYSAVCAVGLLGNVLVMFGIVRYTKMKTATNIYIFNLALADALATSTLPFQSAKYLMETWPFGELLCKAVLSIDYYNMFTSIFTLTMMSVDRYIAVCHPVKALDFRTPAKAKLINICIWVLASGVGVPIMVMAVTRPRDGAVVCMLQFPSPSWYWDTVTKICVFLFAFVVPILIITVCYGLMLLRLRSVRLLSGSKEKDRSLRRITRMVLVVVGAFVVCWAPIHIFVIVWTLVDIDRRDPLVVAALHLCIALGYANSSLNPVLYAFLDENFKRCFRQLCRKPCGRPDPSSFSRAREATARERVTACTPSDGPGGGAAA

| SMILES | activation |
| --- | --- |
| C[C@H](NC(=O)N1CCn2c1nc1ccccc12)C(=O)NCCc1ccccc1 | inactive: -3.49% |
| CCN(CC)CCn1c(NCc2ccccn2)nc2ccccc21 | inactive: 0.16% |
| CCN(CC)CCn1c(N)nc2ccccc21 | inactive: -0.28% |
| Cc1ccc(C(C(=O)NC2CCCCC2)N(Cc2ccco2)C(=O)Cn2cnc3ccccc32)cc1 (stereo unspecified) | inactive: 2.88% |
| Cn1c(=O)c2c(nc(CN3CCN(C(c4ccccc4)c4ccccc4)CC3)n2CC(N)=O)n(C)c1=O | inactive: 0.37% |
| CCOC(=O)c1cccc(NC(=O)Cn2cnc3c2c(=O)n(C)c(=O)n3C)c1 | inactive: -1.26% |
| CC(=O)NC(C)c1nc2ccccc2n1CC(=O)NC(C)CCc1ccccc1 (stereo unspecified) | inactive: -0.92% |
| CCc1cccc(C)c1NC(=O)CSc1nc2ccccc2n1CC(=O)N(C)C | inactive: -1.91% |
| CCN1C(=O)CC(n2c(C)nc3ccccc32)C1=O (stereo unspecified) | inactive: -2.07% |
| Cn1c(=O)[nH]c(=O)c2c1nc(N1CCCCCC1)n2CC(N)=O | inactive: -2.53% |
| Nc1nonc1-c1nc2ccccc2n1CC(=O)N/N=C/c1ccc(-c2ccccc2C(=O)O)o1 | inactive: -2.57% |
| COc1ccc(-c2nn(-c3ccccc3)cc2C(=O)N2c3ccc(C)cc3C3CN(C)CCC32)cc1 (stereo unspecified) | inactive: 0% |
| COc1ccc(CNc2nc3ccccc3n2CCN2CCCCC2)cc1 | inactive: -1.25% |
| COCCN1CCn2c(nc3cc(NS(C)(=O)=O)ccc32)C1 | inactive: -1.47% |
| Cc1cccc(OCC(O)Cn2c(=N)n(CCN3CCCCC3)c3ccccc32)c1 (stereo unspecified) | inactive: 1.02% |
| O=C(Cn1cnc2ccccc21)N/N=C/c1ccco1 | inactive: -2.71% |
| COc1ccc(OC)c(CNc2nc3ccccc3n2CCN2CCCCC2)c1 | inactive: -0.65% |
| O=C(Cn1cnc2ccccc21)Nc1ccccc1-c1ccccc1 | inactive: -0.47% |
| Cc1ccc2c(c1)C1CN(C)CCC1N2S(=O)(=O)c1ccc(C(C)C)cc1 (stereo unspecified) | inactive: 1.71% |

| SMILES | activation |
| --- | --- |
| CCSc1nc2ccccc2n1CC(N)=O | inactive: -1.88% |
| CCC(C)N(C(=O)Cn1c(Cl)nc2c1c(=O)n(C)c(=O)n2C)C1CCS(=O)(=O)C1 (stereo unspecified) | inactive: -1.01% |
| Brc1cccc(CNc2nc3ccccc3n2CCN2CCCCC2)c1 | inactive: -1.5% |
| COC(=O)[C@H](Cc1ccccc1)NC(=O)Cn1cnc2c(NCc3ccccc3)ncnc21 | inactive: -3.56% |
| Cn1c(=O)c2c(nc(CN3CCN(Cc4ccccc4)CC3)n2CCN2CCOCC2)n(C)c1=O | inactive: -1.83% |
| CC(NC(=O)Cn1c(NCCO)nc2ccccc21)c1ccccc1 (stereo unspecified) | inactive: -2.03% |
| CSCC[C@H](NC(=O)N1CCn2c1nc1ccccc12)C(=O)NC1CC1 | inactive: -2.55% |
| O=C(NC1CCCCC1)C(c1ccccc1)N(Cc1ccco1)C(=O)Cn1cnc2ccccc21 (stereo unspecified) | inactive: -0.33% |
| Cc1ccc(C(=O)Cn2c(=N)n(CCN3CCOCC3)c3ccccc32)cc1 | inactive: 5.44% |
| CCOc1ccc(CNc2nc3ccccc3n2CCN2CCOCC2)cc1 | inactive: 0.43% |
| CCN(CC)c1ccc(NC(=O)Cn2c(C(C)NC(=O)c3ccc(C)cc3)nc3ccccc32)cc1 (stereo unspecified) | inactive: 1.78% |
| O=S(=O)(c1ccccc1)c1nnn2c1nc(NC1CCN(Cc3ccccc3)CC1)c1cc(Cl)ccc12 | active: 19.2% |
| COc1ccc(Cc2nnc(NC(=O)Cn3cnc4c3c(=O)n(C)c(=O)n4C)s2)cc1OC | inactive: -0.32% |
| CCCn1c(=O)c2c(nc3n2CCN3Cc2ccco2)n(C)c1=O | inactive: 0.37% |
| O=S(=O)(c1ccc(Cl)cc1)N1CCn2c1nc1ccccc12 | inactive: -0.3% |
| CSCC[C@H](NC(=O)N1CCn2c1nc1ccccc12)C(=O)NCc1ccc2c(c1)OCO2 | inactive: -1.14% |
| CC(/C=N/NC(=O)Cn1cnc2ccccc21)=C\c1ccccc1 | inactive: -0.51% |
| CCOC(=O)Cn1c(=O)oc2cc(S(=O)(=O)N3CCn4c3nc3ccccc34)ccc21 | inactive: 0.03% |
| CC(C)[C@H](NC(=O)N1CCn2c1nc1ccccc12)C(=O)N[C@@H](Cc1ccccc1)C(=O)O | inactive: -2.67% |

| SMILES | activation |
| --- | --- |
| Cc1ccc(-c2csc(N3CCC[C@@H]3C(=O)NCCn3c(-c4ccncc4)nc4ccccc43)n2)cc1 | inactive: 3.75% |
| O=C(Cn1cnc2ccccc21)N/N=C/c1ccccc1 | inactive: -1.28% |
| CN(C)Cc1ccc(-c2nc3cccc4c3n2CCNC4=O)cc1 | inactive: -3.15% |
| COc1ccc(-c2ccc3c(c2)[C@@H]2C[C@H](N(C)C(=O)C(C)(C)C)[C@H]([C@H](C)O)C(=O)N2CC3)cc1 | inactive: 0.63% |
| CCCC(=O)Nc1ccc2c(c1)nc1n2CCN(C2CCCCC2)C1 | inactive: -1.27% |
| O=C(Cn1c(CO)nc2ccccc21)Nc1cc(C(F)(F)F)ccc1N1CCOCC1 | inactive: 0.15% |
| Cc1ccc(NC(=O)Cn2c(/C=C/c3ccccc3)nc3ccccc32)cc1C | inactive: 2.72% |
| CCN(C(=O)Cn1c(Cl)nc2c1c(=O)n(C)c(=O)n2C)C1CCCCC1 | inactive: -1.27% |
| O=C(CCCCCNC(=O)N1CCn2c1nc1ccccc12)NCc1ccccc1 | inactive: -3.87% |
| CCNC(=O)Cn1cnc2c1c(=O)n(C)c(=O)n2C | inactive: 1.63% |
| CSc1nc2ccccc2n1CC(=O)Nc1cc(C(F)(F)F)ccc1N1CCOCC1 | inactive: -3.93% |
| CCOc1ccc(CCNC(=O)Cn2c(-c3nonc3N)nc3ccccc32)cc1OCC | inactive: -1.78% |
| CCN(CC)CCn1c(NCc2nc3ccccc3n2Cc2ccccc2)nc2ccccc21 | inactive: 15.3% |
| c1nnnn1CCn1cnnn1 | inactive: -1.58% |
| CCC(=O)Nc1cccc(C(=O)/C=C/c2ccccc2)c1 | inactive: 2.81% |
| CCN(CC)C(=O)CSc1nc2ccccc2n1CC(=O)N1CCN(c2ccccc2OC)CC1 | inactive: 0.81% |
| CCN(CC)CCn1c(=N)n(CC(O)c2ccc(OC)c(OC)c2)c2ccccc21 (stereo unspecified) | inactive: 3.97% |
| O=C(c1cccs1)N1CCn2c1nc1ccccc12 | inactive: -1.84% |

Source: PubChem BioAssay AID504326 (The Scripps Research Institute Molecular Screening Center, 2011)
